Results as given in patent publication US20030133931A1 (priority 2001, published 2003).
pKd: −log10 of the molar value.

Chains of the proteins cited; added tags and fusions are not shown. Lines headed by an entry give the natural chain unless they say otherwise; changes in a name come on top.
UniProt Q91ZY1: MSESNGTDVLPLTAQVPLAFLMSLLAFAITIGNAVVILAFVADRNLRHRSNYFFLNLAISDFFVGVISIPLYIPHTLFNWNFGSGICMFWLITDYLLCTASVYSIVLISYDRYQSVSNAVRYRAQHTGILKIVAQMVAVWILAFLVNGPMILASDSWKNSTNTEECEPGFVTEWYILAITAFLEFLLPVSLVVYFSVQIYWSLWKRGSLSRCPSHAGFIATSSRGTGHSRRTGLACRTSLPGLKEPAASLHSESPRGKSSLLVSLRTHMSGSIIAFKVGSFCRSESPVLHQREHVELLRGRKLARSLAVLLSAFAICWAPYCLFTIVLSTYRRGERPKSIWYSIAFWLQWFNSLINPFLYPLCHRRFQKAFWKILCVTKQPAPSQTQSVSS

Molecular target: rat histamine H4 receptor (Rattus norvegicus, UniProt Q91ZY1)
Conditions: read-out: ^3H-histamine Kd, Scatchard plot

## ^3H-histamine
  pKd: 6.98
